# Target: ΔF508-CFTR (Homo sapiens, UniProt P13569, DEL508-508)
# Sequences of proteins named here, by UniProt entry; tags and fusion partners are left off. A change or cut given only in a name is not applied to a line headed by its entry. A line that says so, or that is headed by a name, gives the form on record, which may keep a tag or linker.
# UniProt P13569, with tags, fused parts or gaps DEL508-508: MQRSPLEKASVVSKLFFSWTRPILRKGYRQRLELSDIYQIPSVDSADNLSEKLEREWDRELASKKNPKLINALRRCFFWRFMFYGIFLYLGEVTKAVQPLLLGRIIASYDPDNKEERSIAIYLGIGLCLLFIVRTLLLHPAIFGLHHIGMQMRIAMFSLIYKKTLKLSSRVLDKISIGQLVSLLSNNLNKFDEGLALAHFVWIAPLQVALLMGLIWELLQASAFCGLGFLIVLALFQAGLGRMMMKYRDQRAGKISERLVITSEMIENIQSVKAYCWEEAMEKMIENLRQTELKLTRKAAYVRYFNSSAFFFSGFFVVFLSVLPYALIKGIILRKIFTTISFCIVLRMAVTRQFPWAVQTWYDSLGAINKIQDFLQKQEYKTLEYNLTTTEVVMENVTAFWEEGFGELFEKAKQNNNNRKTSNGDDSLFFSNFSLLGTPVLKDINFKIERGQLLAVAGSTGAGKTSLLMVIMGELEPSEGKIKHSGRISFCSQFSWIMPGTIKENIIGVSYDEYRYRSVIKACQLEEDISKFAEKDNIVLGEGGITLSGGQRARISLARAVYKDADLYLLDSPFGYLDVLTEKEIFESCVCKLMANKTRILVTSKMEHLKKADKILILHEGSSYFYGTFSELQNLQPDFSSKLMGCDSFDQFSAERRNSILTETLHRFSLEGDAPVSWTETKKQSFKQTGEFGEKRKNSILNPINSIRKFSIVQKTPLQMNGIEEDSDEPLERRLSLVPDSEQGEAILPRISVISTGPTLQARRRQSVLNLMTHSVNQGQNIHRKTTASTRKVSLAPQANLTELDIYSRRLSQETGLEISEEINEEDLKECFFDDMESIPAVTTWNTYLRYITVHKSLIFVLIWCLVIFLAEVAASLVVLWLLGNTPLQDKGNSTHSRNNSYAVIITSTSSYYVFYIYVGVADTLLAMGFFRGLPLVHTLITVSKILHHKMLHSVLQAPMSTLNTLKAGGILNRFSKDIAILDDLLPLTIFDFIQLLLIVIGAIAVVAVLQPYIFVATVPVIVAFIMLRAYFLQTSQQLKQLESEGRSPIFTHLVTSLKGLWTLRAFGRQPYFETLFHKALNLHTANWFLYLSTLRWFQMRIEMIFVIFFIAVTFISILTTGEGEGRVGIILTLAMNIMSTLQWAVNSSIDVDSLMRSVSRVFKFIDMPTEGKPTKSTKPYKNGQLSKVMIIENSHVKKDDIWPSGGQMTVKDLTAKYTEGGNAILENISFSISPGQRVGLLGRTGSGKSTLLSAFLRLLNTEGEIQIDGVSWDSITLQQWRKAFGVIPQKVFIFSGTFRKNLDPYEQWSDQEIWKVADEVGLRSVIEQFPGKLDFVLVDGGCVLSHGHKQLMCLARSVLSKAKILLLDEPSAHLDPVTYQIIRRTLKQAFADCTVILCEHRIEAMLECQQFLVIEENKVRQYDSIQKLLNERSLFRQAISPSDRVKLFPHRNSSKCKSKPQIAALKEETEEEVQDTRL
# Experiment: Membrane potential optical assay (FRET/VIPR), identification of correction compounds
# Type: cell-based
# Text: I) Membrane Potential Optical Methods for Assaying ΔF508-CFTR Modulation Properties of Compounds
# The optical membrane potential assay utilized voltage-sensitive FRET sensors described by Gonzalez and Tsien (See, Gonzalez, J. E. and R. Y. Tsien (1995) “Voltage sensing by fluorescence resonance energy transfer in single cells” Biophys J 69(4): 1272-80, and Gonzalez, J. E. and R. Y. Tsien (1997) “Improved indicators of cell membrane potential that use fluorescence resonance energy transfer” Chem Biol 4(4): 269-77) in combination with instrumentation for measuring fluorescence changes such as the Voltage/Ion Probe Reader (VIPR) (See, Gonzalez, J. E., K. Oades, et al. (1999) “Cell-based assays and instrumentation for screening ion-channel targets” Drug Discov Today 4(9): 431-439).
# These voltage sensitive assays are based on the change in fluorescence resonant energy transfer (FRET) between the membrane-soluble, voltage-sensitive dye, DiSBAC2(3), and a fluorescent phospholipid, CC2-DMPE, which is attached to the outer leaflet of the plasma membrane and acts as a FRET donor. […] The changes in fluorescence emission were monitored using VIPR™ II, which is an integrated liquid handler and fluorescent detector designed to conduct cell-based screens in 96- or 384-well microtiter plates. […]
compound,measurement,setting,value
CC(c1nc2ccccc2c(=O)n1C)N1CCC2(CC1)C(=O)NCN2c1ccccc1 (centres unmarked),EC50,,25 to 60 µM
same,% Efficacy,relative efficacy,++ (“++” means between 25% to 100%)

# Reference: patent US8642609B2, “Modulators of ATP-binding cassette transporters” (Vertex Pharmaceuticals Incorporated, priority 2003, dated 2014)
